Legend:
Homo sapiens [1] = species: Homo sapiens; test: Selectivity ratio of Ki for human kappa opioid receptor to Ki for human delta opioid receptor
Homo sapiens [2] = species: Homo sapiens; test: Selectivity ratio of Ki for human mu opioid receptor to Ki for human delta opioid receptor

Compound Oc1ccc2c(c1)[C@@]13CCCC[C@H]1[C@@H](C2)N(CC1CCC1)CC3 has a Ratio Ki (Homo sapiens [1]) of 3 and a Ratio Ki (Homo sapiens [2]) of 75.
